## Measured affinities in a library of Ab-14 light chain variants

Values reported by Li et al. 2023, doi:10.1038/s41467-023-39022-2 (FLAb copy).

Binding partner: SARS-CoV-2 spike HR2 peptide, sequence PDVDLGDISGINAS.

Parent scFv Ab-14: VH joined to VL by three GGGGS repeats. Changes lie in the light chain CDRs alone.
VH: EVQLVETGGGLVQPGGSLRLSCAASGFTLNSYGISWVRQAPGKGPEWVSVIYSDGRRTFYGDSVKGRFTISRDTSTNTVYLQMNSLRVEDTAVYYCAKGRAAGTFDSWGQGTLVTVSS
VL: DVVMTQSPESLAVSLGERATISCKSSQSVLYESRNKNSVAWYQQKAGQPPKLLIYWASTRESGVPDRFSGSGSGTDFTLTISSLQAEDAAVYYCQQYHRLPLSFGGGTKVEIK

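The starting antibody came from a phage panning campaign against this peptide. Designed CDR sequences, proposed from the first random library and measured here. Their group label is 14L_En_HC (En: ensemble of fine-tuned language models; HC: hill climbing; a sequence that several methods proposed may carry one label only). The assay is AlphaSeq: two haploid yeast populations carry antibody and antigen on their surface. The frequency of each diploid, read from paired DNA barcodes, reflects how well the two displayed proteins bind. Scores were corrected for input abundance and mapped to Kd with protein pairs of known affinity run in the same pool. Mating was done six times.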

Each variant's VL is given in full.
Values are log10 of the apparent Kd in nM; lower means stronger binding.
The mean shown is taken over the replicates in which the pair was detected.
A pair that was not seen in that replicate is written "n.d."; this usually means weak binding, but a binder can also be missed.
The authors averaged sequences with at least three values out of six and counted those with two or fewer as poor binders.
Values of this round are not directly comparable with the first-round values of the same sequences.
Empty control strains, which show no peptide, gave a signal in 4% of pairings with all light chain designs; the median was 2.64 and 95% of these signals were weaker than 1.59. No background was subtracted. The control count says in how many pairings with the empty strains this scFv gave a signal, with their mean in brackets.

VL	log10 Kd, replicates	log10 Kd (nM), mean	signal with controls
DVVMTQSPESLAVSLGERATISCKIYHGVTGTSRKGNSVAWYQQKAGQPPKLLIYQAETRLDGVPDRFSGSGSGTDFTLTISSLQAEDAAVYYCQQYFRLPLMFGGGTKVEIK	n.d. / n.d. / n.d. / n.d. / n.d. / n.d.	n.d.	0/18
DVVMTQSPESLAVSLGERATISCKLSLFYRMETRNKNSVAWYQQKAGQPPKLLIYDNSTRESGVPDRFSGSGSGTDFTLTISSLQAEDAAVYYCQDYDRLPLSFGGGTKVEIK	2.54 / 2.33 / n.d. / 1.62 / n.d. / 4.77	2.82	3/18 (2.60)
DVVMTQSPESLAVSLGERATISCKISQAHNYLSRVMNSVAWYQQKAGQPPKLLIYDNSTRESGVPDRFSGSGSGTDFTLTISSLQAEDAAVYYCQQYFRLPLSFGGGTKVEIK	0.48 / 0.30 / 0.37 / 0.02 / 0.20 / 0.41	0.30	1/18 (2.77)
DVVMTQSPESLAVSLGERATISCKLSATYRFESQNKSNIAWYQQKAGQPPKLLIYEMTTREQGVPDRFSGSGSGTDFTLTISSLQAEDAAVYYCQCYHRLPLSFGGGTKVEIK	2.54 / 1.74 / 1.34 / 1.66 / 1.39 / 1.59	1.71	1/18 (2.93)
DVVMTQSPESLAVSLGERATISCKISQMYRYEQQNSDSIAWYQQKAGQPPKLLIYEVSTRLNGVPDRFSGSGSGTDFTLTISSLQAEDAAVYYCQSYHRLPLSFGGGTKVEIK	n.d. / 2.67 / 1.89 / 2.40 / 3.49 / 1.88	2.47	0/18
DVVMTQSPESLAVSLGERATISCKLQQSVMFMSGVYNSVAWYQQKAGQPPKLLIYQMSTRAEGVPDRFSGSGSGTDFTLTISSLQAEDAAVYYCQCYHRLPLSFGGGTKVEIK	2.07 / n.d. / 1.72 / 2.66 / 2.68 / 2.76	2.38	0/18
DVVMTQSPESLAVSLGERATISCTISMSMNWLTFNKNNIAWYQQKAGQPPKLLIYEESTREKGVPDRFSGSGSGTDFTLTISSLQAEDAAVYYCQQYDRLPLSFGGGTKVEIK	1.98 / 1.41 / 1.77 / 1.38 / 1.27 / 2.01	1.64	1/18 (1.99)
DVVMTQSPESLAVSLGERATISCKLYQSTAMTSRMKNNVAWYQQKAGQPPKLLIYDLNERGRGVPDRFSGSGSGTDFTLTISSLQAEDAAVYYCQQYFRLPLSFGGGTKVEIK	0.50 / 0.32 / 0.59 / 0.35 / 0.05 / 0.39	0.37	0/18
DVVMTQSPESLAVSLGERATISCTISNSFMMENHFKNSVAWYQQKAGQPPKLLIYQASTRESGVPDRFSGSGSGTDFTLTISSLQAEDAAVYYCQCYDRLPLSFGGGTKVEIK	1.16 / 1.18 / 1.47 / 1.08 / 1.00 / 1.38	1.21	1/18 (4.04)
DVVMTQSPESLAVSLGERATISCHISDLIMVASRNHNSVAWYQQKAGQPPKLLIYDESTRPDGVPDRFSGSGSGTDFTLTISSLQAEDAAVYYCQQYHRLPLSFGGGTKVEIK	1.26 / 0.39 / 0.82 / 0.63 / 1.03 / 0.66	0.80	1/18 (2.43)
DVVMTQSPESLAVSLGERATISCKLLQSVNIGSRALNSVAWYQQKAGQPPKLLIYQMETRVDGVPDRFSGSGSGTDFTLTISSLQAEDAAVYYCQQYHRLPLSFGGGTKVEIK	0.53 / 0.07 / 0.18 / 0.26 / 0.19 / 0.22	0.24	2/18 (2.26)
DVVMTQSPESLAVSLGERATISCALGDVTRMESNKKNSIAWYQQKAGQPPKLLIYDMSTRASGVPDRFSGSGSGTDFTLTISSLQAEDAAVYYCQQYHRLPLSFGGGTKVEIK	-0.08 / -0.22 / -0.16 / -0.31 / -0.30 / 0.04	-0.17	1/18 (2.62)
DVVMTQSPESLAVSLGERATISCKISGYLNKESKNKNSVAWYQQKAGQPPKLLIYEMVNREEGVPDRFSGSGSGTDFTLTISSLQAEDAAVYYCQQYDRLPLSFGGGTKVEIK	0.96 / 0.79 / 0.80 / 0.47 / 0.68 / 1.23	0.82	0/18
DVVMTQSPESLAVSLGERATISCKISMHYNFASTNKNSIAWYQQKAGQPPKLLIYEMTTRESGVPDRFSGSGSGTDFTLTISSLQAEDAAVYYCQHYHRLPLSFGGGTKVEIK	0.34 / 0.24 / 0.42 / -0.08 / 1.24 / 0.45	0.43	0/18
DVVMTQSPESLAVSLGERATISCKISMSYRYESEEKNSIAWYQQKAGQPPKLLIYEMTTREEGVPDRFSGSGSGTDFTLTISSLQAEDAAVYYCQSYHRLPLSFGGGTKVEIK	1.59 / n.d. / n.d. / 1.30 / 2.44 / 2.20	1.88	1/18 (2.30)

The opening 2 entries, copied out:

VL	log10 Kd, replicates	log10 Kd (nM), mean	signal with controls
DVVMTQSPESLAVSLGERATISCKIYHGVTGTSRKGNSVAWYQQKAGQPPKLLIYQAETRLDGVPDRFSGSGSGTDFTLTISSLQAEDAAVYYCQQYFRLPLMFGGGTKVEIK	n.d. / n.d. / n.d. / n.d. / n.d. / n.d.	n.d.	0/18
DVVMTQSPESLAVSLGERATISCKLSLFYRMETRNKNSVAWYQQKAGQPPKLLIYDNSTRESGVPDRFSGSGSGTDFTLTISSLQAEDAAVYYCQDYDRLPLSFGGGTKVEIK	2.54 / 2.33 / n.d. / 1.62 / n.d. / 4.77	2.82	3/18 (2.60)